Measured values: patent publication US20060189530A1 (Bayer Corporation, priority 1996, published 2006)
Changes are numbered by the printed parent chain.

The chains behind the UniProt entries cited, without tags or fusion partners. Where a name states a change or a piece, a line headed by the entry shows the natural chain unless it says otherwise.
UniProt Q63447: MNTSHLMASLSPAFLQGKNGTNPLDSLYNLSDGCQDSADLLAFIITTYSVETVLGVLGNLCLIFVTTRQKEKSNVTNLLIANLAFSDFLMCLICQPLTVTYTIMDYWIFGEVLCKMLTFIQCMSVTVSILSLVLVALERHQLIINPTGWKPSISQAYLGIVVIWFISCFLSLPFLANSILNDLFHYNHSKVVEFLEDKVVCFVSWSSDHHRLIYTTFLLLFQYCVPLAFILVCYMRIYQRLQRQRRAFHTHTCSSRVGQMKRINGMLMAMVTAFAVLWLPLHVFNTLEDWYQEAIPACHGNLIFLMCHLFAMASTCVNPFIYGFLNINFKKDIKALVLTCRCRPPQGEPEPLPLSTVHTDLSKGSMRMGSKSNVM

T1: rat NPY Y5 receptor, Y861 clone (rat, UniProt Q63634 1-445)
T1 construct: Same coding region as Y555; also called RAT Y861 Clone
T1 sequence: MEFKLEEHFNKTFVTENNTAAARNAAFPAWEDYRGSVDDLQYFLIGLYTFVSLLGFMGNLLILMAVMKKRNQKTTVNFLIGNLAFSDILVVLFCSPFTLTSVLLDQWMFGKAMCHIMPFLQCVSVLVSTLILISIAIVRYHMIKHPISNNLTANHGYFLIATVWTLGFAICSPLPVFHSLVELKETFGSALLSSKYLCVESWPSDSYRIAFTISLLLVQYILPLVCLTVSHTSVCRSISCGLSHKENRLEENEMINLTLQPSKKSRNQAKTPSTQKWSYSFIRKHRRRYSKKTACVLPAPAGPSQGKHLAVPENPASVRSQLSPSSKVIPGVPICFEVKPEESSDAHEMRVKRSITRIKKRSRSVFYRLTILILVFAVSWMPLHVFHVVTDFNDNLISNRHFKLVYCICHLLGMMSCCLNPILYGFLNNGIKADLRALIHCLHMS

T2: rat NPY Y5 receptor, Y555 clone (rat, UniProt Q63634 1-445)
T2 construct: Allelic variant of 6B (proline to leucine in the first transmembrane domain); same coding region as Y861; assayed as membranes of transiently transfected COS-7 cells; also called RAT Y555 Clone
T2 sequence: T1 sequence

T3: rat NPY Y5 receptor, 6B clone (rat, UniProt Q63634 1-445)
T3 construct: 445 amino acid protein; assayed as membranes of transiently transfected COS-7 cells; also called RAT 6B Clone; Y217.24.13.6B clone
T3 sequence: T1 sequence with L61P

B1: p(18-36)NPY (peptide, UniProt P01304 27-45, looked up)
peptide: ARYYSALRHYINLITRQRY
modifications: not fully specified
notes: range 18-36; Range counts on the mature peptide
B2: r(13-36)NPY (peptide, UniProt P07808 42-65, looked up)
peptide: PAEDMARYYSALRHYINLITRQRY
modifications: not fully specified
notes: range 13-36; it may be a misprint for r(13-36)PYY (rat NPY is elsewhere written r/h)

What was measured:
[1] = biological target: T1, rat NPY Y5 receptor, Y861 clone; assay: [125I]PYY competition, membranes of stable 293S clone 293S.Y861.2
From the text: (§1) All other peptides were purchased from either Peninsula (Belmont, Calif.) or Bachem (Torrance, Calif.).

[2] = biological target: T4, Rat Y4/PP1 (clone) (rat, UniProt Q63447 1-375); assay: rat [125I]PP competition, rat Y4/PP1 clone
T4 construct: Protein preparation of the cloned receptor; also called rat Y4/PPI; rat Y4/PP1 receptor

[3] = biological target: T1, rat NPY Y5 receptor, Y861 clone; assay: [125I]PYY competition, membranes of transiently transfected COS-7 cells
From the text: as §1

[4] = biological target: T2, rat NPY Y5 receptor, Y555 clone; assay: as above
From the text: as §1

[5] = biological target: T3, rat NPY Y5 receptor, 6B clone; assay: as above
From the text: as §1

Row | Binder | Ki [1] [nM] | IC50 [2] [nM] | Ki [3] [nM] | IC50 [4] [nM] | Ki [5] [nM]
1 | B1 | 61 | 159 |  |  | 
2 | B2 |  |  | 86 | 73 | 11
